Experiment [1] concerns the target GST-tagged GDP-loaded WT KRAS (amino acids 1-169) (Homo sapiens, UniProt P01116). Briefly: KRAS WT probe displacement assay (run with the KRAS G12V assay, TR-FRET). The following applies: read-out: KRAS^WT Probe Displacement Assay IC50; Table 4; WT KRAS 3 nM, biotinylated probe 1 60 nM. The protocol:
(§1) This assay was used to identify compounds which bind to GDP-loaded KRAS protein and are able to displace a biotinylated probe occupying the KRAS binding site. GST-tagged GDP-loaded WT KRAS (amino acids 1-169) and GST-tagged GDP-loaded KRAS G12V (amino acids 1-169) were expressed in E. coli and purified in house. All protein and reaction solutions were prepared in assay buffer containing 50 mM HEPES pH7.5, 50 mM NaCl, 1 mM MgCl2, 1 mM TCEP, 0.01% BSA, and 0.008% Brij-35. Purified WT KRAS (3 nM final concentration) or KRAS G12V protein (2 nM final concentration) was incubated with a 3-fold serially diluted compound in the assay plate (384 well microplate, black. Corning). Plates are incubated at 24 °C for 1 hr. Following the incubation, biotinylated probe 1 (60 nM final assay concentration) for WT KRAS and biotinylated probe 2 (2.5 nM final assay concentration) for KRAS G12V was added to the assay plate, respectively. After 1 hr incubation at 24° C. […] The TR-FRET signals (ex337 nm, em665 nm/620 nm) were read on BMG PHERAstar FSX instrument. The inhibition percentage of KRAS protein binding with biotinylated probe in presence of increasing concentrations of compounds was calculated based on the ratio of fluorescence at 665 nm to that at 620 nm. The IC5% value of each compound was calculated from fitting the data to the four-parameter logistic model by Dotmatics.

Amino acid sequences for entries named in this document (tags omitted). A change or cut given only in a name is not applied to a line headed by its entry. Residues count along the entry.
UniProt P01116, 1-188 isoform 2: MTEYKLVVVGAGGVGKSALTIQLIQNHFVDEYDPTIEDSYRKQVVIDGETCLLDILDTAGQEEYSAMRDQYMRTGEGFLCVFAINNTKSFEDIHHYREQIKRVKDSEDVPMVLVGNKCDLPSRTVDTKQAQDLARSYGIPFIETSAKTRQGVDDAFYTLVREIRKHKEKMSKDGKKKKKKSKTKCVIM
UniProt P01116, 1-188 isoform 2 G12D: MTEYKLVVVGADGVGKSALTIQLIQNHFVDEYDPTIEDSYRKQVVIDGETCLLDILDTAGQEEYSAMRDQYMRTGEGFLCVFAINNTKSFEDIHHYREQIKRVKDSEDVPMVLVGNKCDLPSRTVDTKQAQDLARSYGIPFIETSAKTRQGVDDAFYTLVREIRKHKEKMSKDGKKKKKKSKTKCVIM
UniProt P01116, 1-169 isoform 2 G12V limits assumed: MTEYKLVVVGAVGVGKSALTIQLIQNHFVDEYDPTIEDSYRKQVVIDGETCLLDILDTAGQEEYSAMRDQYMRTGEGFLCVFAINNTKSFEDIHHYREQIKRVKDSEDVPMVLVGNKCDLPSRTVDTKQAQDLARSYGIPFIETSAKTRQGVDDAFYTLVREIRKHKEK

In experiment [2] the test system is pERK1/2(THR202/TYR204) level in SW620 cell line. Briefly: KRAS G12V pERK assay in SW620 cells (HTRF). The following applies: read-out: SW620 pERK IC50, Table 4, 2 hrs compound treatment. As for the experimental part: SW620 cell line was used in this study. Cells were maintained in RPMI 1640 supplemented with 10% fetal bovine serum (Thermo Fisher), 50 units/mL penicillin and streptomycin (Thermo Fisher) and kept at 37° C. in a humidified atmosphere of 5% CO2 in air. Cells were reinstated from frozen stocks that were laid down within 30 passages from the original cells purchased. 40000 cells per well were seeded into a 96-well plate and incubated overnight. Cells were treated with a 10-point dilution series. The final compound concentration is from 0 to 10 μM. After 2 hrs compound treatment, cells were lysed, and the pERK1/2(THR202/TYR204) level in the cell lysates was detected by HTRF kit (Cisbio). In brief, a total of 16 μL of cell lysate from each well of a 96-well plate was transferred to a 384-well white assay plate. Lysate from each well was incubated with 2 μL of Eu3+-cryptate (donor) labeled anti-phospho-ERK1/2 and 2 μL of D)2 (acceptor) labeled anti-phospho-ERK1/2 antibodies (Cisbio) overnight in dark at room temperature. When donor and acceptor are in close proximity, excitation of the donor with laser triggers a Fluorescence Resonance Energy Transfer (FRET) towards the acceptor, which in turn fluoresces at 655 nm wavelength. FRET signals were measured using a PHERAstar FSX reader (BMG Labtech). […]
For orientation: In TR-FRET formats the signal depends on donor and acceptor labels being close together.

Experiment [3] has as its system pERK1/2(THR202/TYR204) level in AsPC-1 cell line. Put plainly: KRAS G12D pERK assay in AsPC-1 cells (HTRF). The settings on record: read-out: AsPC-1 pERK IC50, Table 5, 2 h compound treatment. The protocol: AsPC-1 cell line was used in this study. Cells were maintained in RPMI-1640 supplemented with 10% fetal bovine serum (Thermo Fisher), 50 units/ml, penicillin and streptomycin (Thermo Fisher) and kept at 37° C. in a humidified atmosphere of 5% CO2 in air. Cells were reinstated from frozen stocks that were laid down within 30 passages from the original cells purchased. 30000 cells per well were seeded into a 96-well plate and incubated overnight. Cells were treated with a 10-point dilution series. The final compound concentration is from 0 to 10 μM. After 2 h compound treatment, cells were lysed, and the pERK1/2(THR202/TYR204) level in the cell lysates was detected by HTRF kit (Cisbio). In brief, a total of 16 μL of cell lysate from each well of a 96-well plate was transferred to a 384-well white assay plate. Lysate from each well was incubated with 2 μL of Eu3+-cryptate (donor) labeled anti-phospho-ERK1/2 and 2 μL of D2 (acceptor) labeled anti-phospho-ERK1/2 antibodies (Cisbio) overnight in dark at room temperature. When the donor and acceptor are in close proximity, excitation of the donor with laser triggers a Fluorescence Resonance Energy Transfer (FRET) towards the acceptor, which in turn fluoresces at 655 nm wavelength. FRET signals were measured using a PHERAstar FSX reader (BMG Labtech). […]

The target of experiment [4] is GST-tagged GDP-loaded KRAS G12D (amin acids 1-188) (Homo sapiens, UniProt P01116, G12D). Put plainly: KRAS G12D probe displacement assay (TR-FRET). The settings on record: read-out: KRAS^G12D Probe Displacement Assay IC50; Table 5; KRAS G12D 0.5 nM, biotinylated probe 2 4 nM. As for the experimental part:
(§2) This assay was used to identify compounds which bind to GDP-loaded KRAS protein and are able to displace a biotinylated probe occupying the KRAS binding site. GST-tagged GDP-loaded WT KRAS (amino acids 1-188) and GST-tagged GDP-loaded KRAS G12D (amin acids 1-188) were expressed in E. coli and purified in house. All protein and reaction solutions were prepared in assay buffer containing 50 mM HEPES pH7.5, 50 mM NaCl, 1 mM MgCl2, 1 mM TCEP, 0.01% BSA, and 0.008% Brij-35. Purified WT KRAS (3 nM final concentration) or KRAS G12D protein (0.5 nM final concentration) was incubated with a 3-fold serially diluted compound in the assay plate (384 well microplate, black, Corning). Plates are incubated at 24° C. for 1 hr. Following the incubation, biotinylated probe 1 (60 nM final assay concentration) for WT KRAS and biotinylated probe 2 (4 nM final assay concentration) for KRAS G12D was added to the assay plate, respectively. […] The TR-FRET signals (ex337 nm, em665 nm 620 nm) were read on BMG PHERAstar FSX instrument. The inhibition percentage of KRAS protein binding with biotinylated probe in presence of increasing concentrations of compounds was calculated based on the ratio of fluorescence at 665 nm to that at 620 nm. The IC50 value of each compound was calculated from fitting the data to the four-parameter logistic model by Dotmatics.

The target in experiment [5] is GST-tagged GDP-loaded WT KRAS (amino acids 1-188) (Homo sapiens, UniProt P01116). The protocol: as §2
The target of experiment [6] is GST-tagged GDP-loaded KRAS G12V (amino acids 1-169) (Homo sapiens, UniProt P01116, G12V). Briefly: KRAS G12V probe displacement assay (TR-FRET). The settings on record: read-out: KRAS^G12V Probe Displacement Assay IC50; Table 4; KRAS G12V 2 nM, biotinylated probe 2 2.5 nM. As for the experimental part: as §1

Turning to `Cc1cc(N)cc(-c2nc3c4c(nc(OC[C@@]56CCCN5C[C@H](F)C6)nc4c2F)N(C)[C@H]2CCOC[C@@H]2O3)c1C(F)(F)F`, the half-inhibitory concentration (IC50) – broadly, the concentration at which inhibition is half-maximal – in experiment [1] was determined as 0.58 nM; in experiment [2], 7.3 nM; in experiment [3], 16 nM; in experiment [4] it was 0.32 nM; in experiment [5] it was 0.58 nM; in experiment [6], 0.42 nM.

Values taken from patent US20240262848A1, “HETEROCYCLIC COMPOUNDS, COMPOSITIONS THEREOF, AND METHODS OF TREATMENT THEREWITH” (BeiGene, Ltd., priority 2022, published 2024).
